Experimental data published in patent US20090176817A1, “Method of Treatment of Diarrhea-Predominant Irritable Bowel Syndrome in a Subject” (priority 2005, published 2009).

Protein sequences, listed by entry. Tags and fused reporters are not part of them.
UniProt P08183, whole entry: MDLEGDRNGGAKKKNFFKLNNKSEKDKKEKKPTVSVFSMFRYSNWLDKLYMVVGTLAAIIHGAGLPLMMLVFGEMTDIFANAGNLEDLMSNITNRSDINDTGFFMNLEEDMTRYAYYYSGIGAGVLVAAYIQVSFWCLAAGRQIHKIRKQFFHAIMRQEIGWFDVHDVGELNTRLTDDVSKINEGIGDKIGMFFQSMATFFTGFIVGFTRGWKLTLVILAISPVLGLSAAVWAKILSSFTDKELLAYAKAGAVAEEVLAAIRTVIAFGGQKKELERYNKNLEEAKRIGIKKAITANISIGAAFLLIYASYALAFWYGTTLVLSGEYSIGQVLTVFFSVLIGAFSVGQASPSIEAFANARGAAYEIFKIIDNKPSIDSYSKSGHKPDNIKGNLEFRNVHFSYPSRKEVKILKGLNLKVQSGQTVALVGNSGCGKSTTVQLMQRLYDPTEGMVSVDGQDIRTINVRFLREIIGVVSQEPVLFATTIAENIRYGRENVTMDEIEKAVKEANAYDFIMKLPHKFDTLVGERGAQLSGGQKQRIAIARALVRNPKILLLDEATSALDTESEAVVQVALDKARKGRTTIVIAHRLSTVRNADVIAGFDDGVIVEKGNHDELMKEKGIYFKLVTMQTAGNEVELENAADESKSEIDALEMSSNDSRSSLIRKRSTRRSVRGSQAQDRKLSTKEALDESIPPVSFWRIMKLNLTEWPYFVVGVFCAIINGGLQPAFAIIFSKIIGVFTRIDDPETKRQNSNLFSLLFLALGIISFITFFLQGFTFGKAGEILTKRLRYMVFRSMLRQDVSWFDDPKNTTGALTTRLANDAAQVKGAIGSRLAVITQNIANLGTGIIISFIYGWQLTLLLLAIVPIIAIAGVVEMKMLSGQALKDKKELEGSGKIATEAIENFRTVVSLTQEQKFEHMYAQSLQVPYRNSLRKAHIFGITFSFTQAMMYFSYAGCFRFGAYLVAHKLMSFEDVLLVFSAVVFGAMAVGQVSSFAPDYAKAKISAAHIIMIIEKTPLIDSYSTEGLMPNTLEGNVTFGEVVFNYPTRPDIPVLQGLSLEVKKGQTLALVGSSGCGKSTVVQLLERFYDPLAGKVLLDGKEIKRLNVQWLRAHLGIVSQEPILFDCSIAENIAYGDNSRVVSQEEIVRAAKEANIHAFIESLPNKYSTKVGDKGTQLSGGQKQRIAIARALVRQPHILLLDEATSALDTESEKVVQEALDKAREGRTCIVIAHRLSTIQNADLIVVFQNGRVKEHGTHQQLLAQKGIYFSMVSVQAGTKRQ

Biological target: T1, human P-glycoprotein (Homo sapiens, UniProt P08183)
T1 construct: expressed in transfected cells; host or cells: PK 1 LLC MDR cells (LLC-PK1 porcine kidney cells expressing human MDR1, by own knowledge)
Experiment: Study K.241.6026: in vitro transport by P-glycoprotein in PK 1 LLC MDR cells
Type: in vitro ADME
Conditions: 3 hours of incubation
Experimental: Cilansetron easily passes biological membranes, probably including the blood-brain barrier. […] Much higher concentrations, above 1000 ng/mL, were required to saturate P-glycoprotein in vitro.

## O=C(NCCN1CCN(c2cccc3c2OC[C@H](CO)O3)CC1)c1ccc(F)cc1 [DU 29373, reference compound]
Arithmetic mean percentages transported
  Membrane Passage: 30%
Ratio of percentages transported
  P-gp Factor: 7
